Measurements reported in PubChem BioAssay AID684 (PCMD, 2007).
Only a part is listed here, and it is no random draw. Some tests of the compounds listed are not included; inactive here does not mean inactive elsewhere. Active and inactive are the calls of the source. Rule as the data show it: active = inhibition above about 20% (passing the limit was not always enough); inactive = the rest.

Chains of the proteins cited; added tags and fusions are not shown. Residues count along the entry.
UniProt P00748, 20-372 limits assumed: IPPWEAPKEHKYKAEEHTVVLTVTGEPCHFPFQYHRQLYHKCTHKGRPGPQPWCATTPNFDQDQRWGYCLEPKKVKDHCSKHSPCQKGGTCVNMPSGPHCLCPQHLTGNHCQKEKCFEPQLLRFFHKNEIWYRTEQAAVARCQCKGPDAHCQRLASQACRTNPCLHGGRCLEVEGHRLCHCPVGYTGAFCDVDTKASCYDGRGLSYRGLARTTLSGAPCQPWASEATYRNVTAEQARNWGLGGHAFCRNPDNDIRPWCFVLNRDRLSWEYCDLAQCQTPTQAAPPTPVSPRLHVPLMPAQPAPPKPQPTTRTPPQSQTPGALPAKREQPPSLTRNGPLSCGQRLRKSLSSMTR
UniProt P00748, 373-615 limits assumed: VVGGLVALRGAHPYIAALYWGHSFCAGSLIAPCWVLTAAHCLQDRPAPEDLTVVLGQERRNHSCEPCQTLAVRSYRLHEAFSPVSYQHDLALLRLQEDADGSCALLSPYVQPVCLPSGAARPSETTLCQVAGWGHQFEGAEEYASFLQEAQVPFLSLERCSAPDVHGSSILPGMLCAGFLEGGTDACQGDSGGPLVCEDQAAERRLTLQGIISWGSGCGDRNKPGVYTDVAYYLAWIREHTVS

These compounds were tested against Coagulation factor XII (Homo sapiens) (UniProt P00748) (assay: blockers of FXIIa protease activity – biochemical, pooled compound mixtures, fluorogenic substrate, primary screen (AID 684;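 also: 0% = enzyme without compound and 100% = no enzyme blank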)). Conditions: purified FXIIa, at 5 µM, active compounds read high.

Compound | inhibition
CN(C)c1cccc(C(=O)NCC2(N(C)C)CCCCC2)c1 | inactive: 0.68%
O=C(OC1CN2CCC1CC2)C(CO)(c1ccccc1)c1ccccc1 (configuration not stated) | inactive: 0.21%
